The text below walks through data of patent EP2057188B1 (priority 2006, dated 2008).

The experiment concerns the target human GIP receptor. The following applies: read-out: GIP RBA; the 20th table; modification at residue 2 or residues 2+3; same values are given in nM.

Turning to “YaEGTFISDYSIAMDKIHQQDFVNWLLAQKPSSGAPPPS-NH2 [Compound 0601GIP3794]”, the IC50 was found to be 3.8 nM.
